# Source: PubChem BioAssay AID602438 (Sanford-Burnham Center for Chemical Genomics, 2012)
# Protein sequences, listed by entry. Tags and fused reporters are not part of them.
# UniProt O14786, whole entry, looked up: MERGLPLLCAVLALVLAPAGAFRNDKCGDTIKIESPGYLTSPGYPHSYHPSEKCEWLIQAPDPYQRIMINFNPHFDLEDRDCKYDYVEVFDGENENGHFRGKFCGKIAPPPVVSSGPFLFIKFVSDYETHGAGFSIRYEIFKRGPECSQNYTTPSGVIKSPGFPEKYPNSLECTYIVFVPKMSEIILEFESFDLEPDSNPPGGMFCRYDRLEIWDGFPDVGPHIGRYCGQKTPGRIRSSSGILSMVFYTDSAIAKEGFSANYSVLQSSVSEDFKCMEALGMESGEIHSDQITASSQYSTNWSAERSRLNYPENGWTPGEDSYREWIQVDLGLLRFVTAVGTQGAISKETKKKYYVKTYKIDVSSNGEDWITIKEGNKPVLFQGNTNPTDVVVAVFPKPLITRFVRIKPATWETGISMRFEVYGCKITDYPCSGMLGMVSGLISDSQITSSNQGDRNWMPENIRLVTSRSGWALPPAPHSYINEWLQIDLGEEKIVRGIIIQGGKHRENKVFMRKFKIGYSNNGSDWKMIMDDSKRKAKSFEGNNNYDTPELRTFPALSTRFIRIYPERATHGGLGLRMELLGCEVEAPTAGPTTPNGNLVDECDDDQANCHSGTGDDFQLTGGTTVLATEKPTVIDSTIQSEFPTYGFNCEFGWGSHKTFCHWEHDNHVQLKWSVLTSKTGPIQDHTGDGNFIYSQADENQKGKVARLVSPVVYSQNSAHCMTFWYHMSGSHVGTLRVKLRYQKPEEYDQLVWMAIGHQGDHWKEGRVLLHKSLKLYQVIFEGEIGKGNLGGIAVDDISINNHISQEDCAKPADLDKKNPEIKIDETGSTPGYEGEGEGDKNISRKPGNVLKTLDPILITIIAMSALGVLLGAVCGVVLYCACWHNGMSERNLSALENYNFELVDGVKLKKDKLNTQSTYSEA
# Only a part is listed here, and it is no random draw. Active and inactive are the calls of the source.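 The calls were made as follows: active = inhibition or corrected inhibition above about 18%, plus a signal ratio from 0.5 to 1.5 (limit read from the data, passing the limit was not always enough); inactive = the rest.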
# Biological target: Neuropilin-1 (Homo sapiens) (UniProt O14786)
# Assay: NRP-1/CendR peptide interaction modulators – biochemical, fluorescence polarization, uHTS, primary screen (AID 602438)
# Settings: FAM-RPARPAR peptide binding to NRP-1, fluorescence polarization; at 25 µM; active compounds read high
row,SMILES,inhibition
1,COP1(=S)c2c(C)nn(CCC#N)c2N=C(c2ccc(F)cc2)N1C (centres undefined),inactive: 13.2%
2,COC(=O)C1(C)COP(=O)(N2CCCC2)OC1 (centres undefined),inactive: 0.3%
3,O=[N+]([O-])c1cc(Oc2ccc([N+](=O)[O-])cc2C(F)(F)F)cc([N+](=O)[O-])c1,inactive: -1.1%
4,COc1ccc(N/C(=N/P(=O)(N2CCOCC2)N2CCOCC2)N2CCOCC2)cc1,inactive: 4.1%
5,O=P1(N(CCCl)CCCl)Nc2ccccc2N1,inactive: 5.1%
6,O=P1(N(CCCl)CCCl)OCCCN1CCCl (centres undefined),inactive: 10.6%
7,COc1ccc2nc(NP(=O)(c3ccccc3)c3ccccc3)sc2c1,active: 19%
8,COc1cc(I)ccc1[As](=O)(O)O,inactive: 1.1%
9,Cc1c2c(nc3ccccc13)SC(C(Cl)Cl)C2 (centres undefined),inactive: 0.7%
10,O=C(OC1CN2CCC1CC2)C12CC3CC(CC(C3)C1)C2 (centres undefined),inactive: 4.1%
11,Cc1cc(=O)[nH]c(N[N+](=O)[O-])n1,inactive: -4.3%
12,CC(C)NC(=O)NP(=O)(Oc1ccccc1)Oc1ccccc1,inactive: 16.4%
13,CCN(CC)C(=S)SC(NC=O)C(Cl)(Cl)Cl (centres undefined),inactive: -1.2%
14,O=C(OC1CN2CCC1CC2)c1cccc2[nH]cnc12 (centres undefined),inactive: 0.8%
15,O=[N+]([O-])c1cc([N+](=O)[O-])c(-c2ccn[nH]2)s1,inactive: 12.4%
16,ClCCSc1nnc(-c2cccnc2)o1,inactive: 16.7%
17,COC(=O)C1(C)COP(=O)(N2CCCCCC2)OC1 (centres undefined),inactive: -4.3%
18,CC(C)c1ccc(OP(=O)(Nc2ccccn2)Oc2ccccc2F)cc1 (centres undefined),inactive: -4.3%
19,Cc1ccc(OP(=O)(Nc2ccc([N+](=O)[O-])cn2)Oc2ccc(C)cc2)cc1,inactive: 6.3%
20,[N-]=[N+]=NC1CCCCC1NC(=O)c1cc([N+](=O)[O-])cc([N+](=O)[O-])c1 (centres undefined),inactive: 11.4%
21,Cc1ccc2nc3c(c(C)c2c1)CC(C(Cl)Cl)S3 (centres undefined),inactive: -7.6%
22,C[As](=O)(O)c1cccc(C(=O)O)c1,inactive: 18%
23,O=[As](O)(c1ccc(O)cc1)c1ccccc1O,inactive: -5.3%
24,O=[N+]([O-])c1ccc(-c2cc([N+](=O)[O-])c(O)c([N+](=O)[O-])c2)cc1,inactive: -17.1%
25,COc1cc(C(=O)NCC2(N3CCOCC3)CCCCC2)ccc1OCC(C)C,inactive: 1.4%

row,SMILES,inhibition
1,N#CCCN(C(=O)COC(=O)C(O)(c1ccccc1)c1ccccc1)c1ccc(F)cc1,inactive: 7.3%
2,CN(C(=O)Cc1ccccc1)[C@@H]1CC[C@]2(CCCO2)C[C@H]1N1CCCC1,inactive: -16.5%
3,CCOP1(=S)c2c(C)nn(CCC#N)c2N=C(c2ccc(F)cc2)N1C (centres undefined),inactive: 16%
4,O=[N+]([O-])c1ccc2c(c1)nnn2O,inactive: 0.2%
5,CN(C)C(=O)c1cc([N+](=O)[O-])cc2c1-c1c(cc([N+](=O)[O-])cc1[N+](=O)[O-])C2=O,inactive: 21.9%
6,CN(C(=O)Cc1ccc(Cl)c(Cl)c1)[C@H]1CC[C@@]2(CCCO2)C[C@@H]1N1CCCC1,inactive: -0.9%
7,NC(=O)Nc1ccc([As](=O)(O)O)cc1,inactive: 10.6%
8,O=C(O)COc1ccc([As](=O)(O)O)cc1[N+](=O)[O-],inactive: 16.9%
9,Nc1ccccc1[As](=O)(O)c1ccccc1,inactive: 0.2%
10,CCOP1(=S)c2c(C)nn(CCC#N)c2N=C(c2ccccc2F)N1C (centres undefined),inactive: -17.2%
11,O=P(Nc1nccs1)(Oc1ccccc1)Oc1ccccc1,inactive: -0.6%
12,O=P(Nc1nccs1)(c1ccccc1)c1nc2ccccc2s1 (centres undefined),inactive: -2.4%
13,CS(=O)(=O)c1cc([N+](=O)[O-])c2no[n+]([O-])c2c1,inactive: 2.2%
14,COc1cc(C2NCCC3(OCCO3)C2(C)C)cc(OC)c1OC (centres undefined),inactive: -11.6%
15,CCOP(=O)(Nc1cccc2ccccc12)OCC,inactive: 8.5%
16,Cc1ccc(NCCc2c([N+](=O)[O-])cc([N+](=O)[O-])cc2[N+](=O)[O-])cc1,inactive: 1.4%
17,Nc1cccc2c([As](=O)(O)O)cccc12,inactive: -43.1%
18,CCCOP(=S)(Nc1nc(N)cc(=O)[nH]1)OCCC,inactive: -13.3%
19,Cc1cccc(OCC(=O)OC2CN3CCC2CC3)c1 (centres undefined),inactive: -6%
20,O=[As](O)(c1cccc(O)c1)c1cccc(O)c1,inactive: 2.3%
21,O=C(OC1CN2CCC1CC2)c1ccc(Cl)cc1 (centres undefined),inactive: -9.1%
22,O=[As](O)(O)c1cccnc1,inactive: 7.7%
23,COc1cc(C(=O)NCC2(N3CCOCC3)CCCCC2)cc(Cl)c1OC(C)C,inactive: 3.4%
24,CS(=O)(=O)c1ccc(Cl)c(NC(=O)COC(=O)C(O)(c2ccccc2)c2ccccc2)c1,inactive: 6.4%
25,CN(C(=O)Cc1ccc(Cl)c(Cl)c1)[C@@H]1CCCC[C@H]1N1CCCC1,inactive: 5.4%

row,SMILES,inhibition
1,CC(C)/C=N\N=C(\N)N[N+](=O)[O-],inactive: -5%
2,CC1(CBr)Cn2c(nc3ccccc3c2=O)S1 (centres undefined),inactive: 5.7%
3,COc1ccccc1CNC(=O)COC(=O)C(O)(c1ccccc1)c1ccccc1,inactive: 5.1%
4,Clc1n[nH]nc1-c1nn[nH][15n]1,inactive: -3.9%
5,O=P1(N(CCCl)CCCl)NCCC(C(F)(F)F)O1 (centres undefined),inactive: 4.2%
6,CC(C)(C)C(=O)NC(Sc1ncccn1)C(Cl)(Cl)Cl (centres undefined),inactive: -2.5%
7,CCC1=CC2Cc3nc4ccc(Cl)cc4c(N)c3C(C1)C2 (centres undefined),inactive: -6.5%
8,O=P1(Nc2ccccn2)COc2ccccc2OC1,inactive: -7%
9,CCOP(=O)(NC(=NC(C)c1ccccc1)NC(C)c1ccccc1)OCC (centres undefined),inactive: 1.8%
10,CCOP(=O)(Nc1ccc(C)cn1)OCC,inactive: 7.8%
11,CN(CCCl)Cc1cc(Cl)c(NC2=NCCN2)c(Cl)c1,inactive: -5.2%
12,Nc1cccc([As](=O)(O)c2ccccc2)c1,inactive: -8.7%
13,Cc1ccc(OCC(=O)OC2CN3CCC2CC3)cc1 (centres undefined),inactive: 9.2%
14,O=[As](O)(c1cccs1)c1cccs1,inactive: 5.9%
15,NS(=O)(=O)c1cccc(NC(=O)COC(=O)C(O)(c2ccccc2)c2ccccc2)c1,inactive: 9.9%
16,O=P1(Nc2ccc(Br)cn2)COc2ccccc2OC1,inactive: 0.6%
17,Cc1ccc(S(=O)(=O)N(CCCN)CCCc2c(C)nc(N)[nH]c2=O)cc1,inactive: 3.5%
18,O=P1(Nc2ncccn2)COc2ccccc2OC1,inactive: 17.8%
19,CN(C)C1(CNC(=O)c2ccc(S(C)(=O)=O)cc2)CCCCC1,inactive: -8.2%
20,O=C(/C=C/c1ccccc1)OC1CN2CCC1CC2 (centres undefined),inactive: -7.4%
21,CCCC1OP(=O)(Nc2ccccc2)OCC1CC (centres undefined),inactive: 1.1%
22,Cc1nn(-c2ccccc2)c2c1P(=O)(N1CCOCC1)N(C)C(c1ccccc1)=N2 (centres undefined),inactive: 10.3%
23,Cc1ccc(C(=O)OC2CN3CCC2CC3)cc1 (centres undefined),inactive: 4.8%
24,CC1CCC(C(C)C)C(OP(=O)(Nc2ccccn2)c2ccccc2)C1 (centres undefined),inactive: 7%
